Several values for one entry are separate records, joined by “and”; a condition that tells them apart may be missing. Equal entries are not always repeated. This is a selection; strong and weak results do not stand in their true shares. Some results for these compounds are left out of this collection, so the calls shown say nothing about other tests. Results filed as inconclusive are left out. Activity calls are given as the source filed them. The call rests on the fitted dose curve; in most records, active means well fitted activation curve with a large enough effect; inconclusive means small, poorly fitted or top-dose-only effect; inactive means no such curve, though single readings can be large or run the other way.

The experiment is described as follows: qHTS for Suppressors of FUS Proteinopathy: Primary screen using FUS-linked yeast assay.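 Further: plate controls were DMSO vehicle for no effect and reference control for full effect; nearly all actives have a fitted effect of over 55% in size.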 The conditions noted are these: S. cerevisiae FUS-expressing, OD600, 24 h; at 76.6 µM (top of the series). An excerpt: Several widespread neurodegenerative diseases, including Alzheimer disease, Huntington disease, Frontotemporal Lobar Degeneration (FTLD) and Amyotrophic Lateral Sclerosis (ALS), share a common pathological feature, namely accumulation of specific protein aggregates in diseased tissue. These diseases which is associated with protein misfolding (proteinopathies) have become increasingly problematic as the population ages and life expectancies are extended. Most proteinopathies are currently incurable, a situation confounded by the fact that the basis of neurodegeneration is generally poorly understood. There exists urgent and significant need to find therapeutics that can inhibit the toxicity associated with protein aggregation. A novel approach to understand the underlying mechanisms of neurodegenerative diseases has recently emerged in which the disease conditions are modeled in the yeast (Saccharomyces cerevisiae), a tractable eukaryotic organism with conserved protein quality control mechanisms. Yeast offers quick and reliable genetic manipulations and can be easily tailored to high-throughput screening (HTS).
For this project, a yeast model of the FUS proteinopathies (a spectrum of neurodegenerative diseases that include ALS and a subtype of FTLD) was generated and employed. The cytoplasmic accumulation of the DNA/RNA-binding protein FUS (also known as TLS) is causative to both familial and sporadic forms of ALS and FTLD. This yeast model recapitulates neuronal pathology by showing severe cytotoxicity associated with cytoplasmic accumulation of FUS aggregates and a specific interaction between FUS and TDP-43, another ALS-associated protein. […] Specifically, the cellular accumulation of misfolded FUS that disrupts RNA homeostasis in both yeast and higher eukaryotes. This model was validated to be suitable for quantitative HTS (qHTS) use for finding genetic or chemical factors that restore growth. […] Identified compounds that inhibits FUS-yeast toxicity is flagged, re-acquired, and validated for further investigation and optimization.
NIH Chemical Genomics Center [NCGC]
NIH Molecular Libraries Probe Production Centers Network [MLPCN]
Assay Submitter (PI): Frank Shewmaker PhD, Uniformed Services University of the Health Sciences
Compound CP55940 was used as the positive control. Column 1 was treated with CP55940 titration from 92uM (final concentration, 1:2 dilution), while Column 2 was treated with top dose 92uM. Columns 3 and 4 were treated with DMSO only as negative control to assess background and noise signal.
Four hundred fifty microliter of cultured yeast (in 20mL rich medium) provided by Dr. Shewmaker lab was incubated at 30C at 99% humidity for 3hr. The culture was then spun down at 4000rpm for 5min and the cell pellet was resuspended in 2mL of Sdmin Media + ALU(330) + 2.5% Raffinose. One hundred microliter of the suspension was added to 900uL of water and OD of the solution was obtained. Twenty mL of responding medium (provided by Shewmaker lab) + 2.5% raffinose was added to ensure cell density of 0.1; the solution was incubated overnight. Working cell solution (FUS-yeast in Sdmi + Sdmi + 1X ALU + 2% galactose media) was prepared (final OD at 0.005) and 3uL was dispensed in a 1536-well Aurora high based clear bottom assay plates. Controls and library compounds (at various final concentrations from 40uM to 0.32uM) were added using a 1536-well pin array using the Kalypsys pin-tool. The plates were then incubated for 24hrs in a cell-culture incubator (30C; 99% humidity). Absorbance at 600nm was then read using the PerkinElmer ViewLux plate reader.
In general terms: Quantitative high-throughput screening tests each substance at several concentrations.
With `COc1ccc(Cl)cc1C(=O)NCC1(N(C)C)CCCCC1`, the growth rescue (activation) was inactive: 8.97%. As for `COc1cccc(C(=O)NCC2(N3CCCCC3)CCCCC2)c1`, the figure is inactive: 24.5%; as for `COc1ccc(C(=O)NCC2(N(C)C)CCCCC2)cc1Cl`, inactive: -16.5%.

Turning to `O=C(NCC1(N2CCCCC2)CCCCC1)c1cccc(Cl)c1`, the growth rescue (activation) is inactive: 2.74%. The figure for `CN(C)C1(CNC(=O)c2ccc(Br)cc2)CCCCC1` is inactive: 27.5%; for `COc1cc(C(=O)NCC2(N(C)C)CCCCC2)c([N+](=O)[O-])cc1OC` it is inactive: -21.8%. For the compound `C=C(C)C#CC(O)(C(=O)OC1CCN(C)CC1)c1ccccc1` (stereo not given), the growth rescue (activation) was inactive: 16.8%. As for `COc1ccc(Br)c(C(=O)NCC2(N3CCCCC3)CCCCC2)c1`, the figure is inactive: -20.4%. Turning to `COc1cc(C(=O)NCC2(N(C)C)CCCCC2)cc(OC)c1OC`, the growth rescue (activation) is inactive: -13.7%. The figure for `Cc1cccc(C(=O)NCC2(N(C)C)CCCCC2)c1` is inactive: -20.9%. With `O=C(OCCN1CCCC1)C(O)(c1ccccc1)c1ccccc1`, the growth rescue (activation) is inactive: -5.47%.

In the case of `CC(C)Oc1ccc(C(=O)NCC2(N(C)C)CCCCC2)cc1`, the growth rescue (activation) is inactive: -16.5% and inactive: 18.5%. As for `CN(C)c1cccc(C(=O)NCC2(N(C)C)CCCCC2)c1`, the growth rescue (activation) is inactive: -10%. As for `COc1cccc(C(=O)NCC2(N3CCOCC3)CCCCC2)c1`, the figure is inactive: -23.7%; as for `O=C(OC1CN2CCC1CC2)C(CO)(c1ccccc1)c1ccccc1` (stereo not given), inactive: -11.9%; as for `CC(C)COc1ccc(C(=O)NCC2(N(C)C)CCCCC2)cc1`, inactive: -7.35%. The figure for `COc1cc(SC)ccc1C(=O)NCC1(N(C)C)CCCCC1` is inactive: -20.9%; for `CCN(CC)CC(C)C(C)OC(=O)C(O)(c1ccccc1)c1ccccc1` (stereo not given) it is inactive: 19.8%; for `CN(C)C1(CNC(=O)c2cccc(Cl)c2)CCCCC1` it is inactive: -16.8%. For `CC(C)N1C(=O)CC2(CCN(CCOC(=O)C(O)(c3ccccc3)c3ccccc3)CC2)C1=O`, the growth rescue (activation) was inactive: 4.06%.

For the compound `Cc1ccc(C(=O)NCC2(N3CCCCC3)CCCCC2)cc1`, the growth rescue (activation) is inactive: 17.1%. As for `CN(C)C1(CNC(=O)c2ccccc2F)CCCCC1`, the growth rescue (activation) was inactive: -20.8%. As for `O=C(NCC1(N2CCCCC2)CCCCC1)c1cc([N+](=O)[O-])ccc1Cl`, the figure is inactive: 16%; as for `CN1[C@@H]2CC[C@H]1CC(OC(=O)C(O)(c1ccccc1)c1ccccc1)C2` (stereo not given in full), inactive: -4.72%; as for `O=C(NCC1(N2CCCCC2)CCCCC1)c1cc(F)c(F)cc1Cl`, inactive: 7.05%. The figure for `C=CCN1CCN(CCOC(=O)C(O)(c2ccccc2)c2ccccc2)CC1` is inactive: -32.2%. As for `CCOc1cccc(C(=O)NCC2(N(C)C)CCCCC2)c1`, the figure is inactive: -5.13%; as for `COc1ccc(C(=O)NCC2(N(C)C)CCCCC2)cc1`, inactive: -15.1%. With `O=C(NCC1(N2CCCCC2)CCCCC1)c1cccc(Br)c1`, the growth rescue (activation) is inactive: -2.81%. The figure for `Cc1cc(C(=O)NCC2(N3CCCCC3)CCCCC2)ccc1[N+](=O)[O-]` is inactive: -5.71%; for `CCN1CCCC(OC(=O)C2(O)c3ccccc3C=Cc3ccccc32)C1` (stereo not given) it is inactive: 2.81%; for `CN(C)c1ccc(C(=O)NCC2(N(C)C)CCCCC2)cc1` it is inactive: 11%. The figure for `CN(C)C1(CNC(=O)c2ccccc2[N+](=O)[O-])CCCCC1` is inactive: -26.7%; for `Cc1ccccc1C(=O)NCC1(N2CCCCC2)CCCCC1` it is inactive: -38.9%; for `CCCCOc1ccccc1C(=O)NCC1(N(C)C)CCCCC1` it is inactive: -17.6%.

These data come from PubChem BioAssay AID1347120 (National Center for Advancing Translational Sciences (NCATS), 2019).
